Earlier results on one substance are cited in publication PMC6994236.

Amino acid sequences for entries named in this document (tags omitted). A change or cut given only in a name is not applied to a line headed by its entry. Residues count along the entry.
UniProt Q62765: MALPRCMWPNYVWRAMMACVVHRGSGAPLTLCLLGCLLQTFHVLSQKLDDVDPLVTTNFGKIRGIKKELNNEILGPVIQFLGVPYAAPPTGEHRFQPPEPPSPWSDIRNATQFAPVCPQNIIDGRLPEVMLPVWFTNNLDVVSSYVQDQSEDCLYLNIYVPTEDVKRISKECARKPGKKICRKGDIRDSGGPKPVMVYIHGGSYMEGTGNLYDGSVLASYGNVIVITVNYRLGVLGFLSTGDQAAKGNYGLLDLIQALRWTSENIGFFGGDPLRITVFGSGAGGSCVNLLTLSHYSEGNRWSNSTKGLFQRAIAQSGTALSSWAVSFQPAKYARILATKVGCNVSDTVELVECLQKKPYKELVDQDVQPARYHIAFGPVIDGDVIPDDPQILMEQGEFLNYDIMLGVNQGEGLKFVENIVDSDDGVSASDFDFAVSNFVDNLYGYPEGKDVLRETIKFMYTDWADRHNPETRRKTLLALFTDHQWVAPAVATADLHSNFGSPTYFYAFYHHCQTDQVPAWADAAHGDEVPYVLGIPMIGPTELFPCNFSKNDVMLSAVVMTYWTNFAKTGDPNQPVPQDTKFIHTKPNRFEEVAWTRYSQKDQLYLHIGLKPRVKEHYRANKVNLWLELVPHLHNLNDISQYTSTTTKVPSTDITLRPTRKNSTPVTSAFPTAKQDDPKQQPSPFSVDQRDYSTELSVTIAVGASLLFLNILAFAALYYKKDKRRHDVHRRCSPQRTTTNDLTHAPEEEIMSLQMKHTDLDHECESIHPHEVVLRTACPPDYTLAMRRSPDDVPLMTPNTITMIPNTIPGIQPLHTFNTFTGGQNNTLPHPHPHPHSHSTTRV
UniProt P31016, 61-393: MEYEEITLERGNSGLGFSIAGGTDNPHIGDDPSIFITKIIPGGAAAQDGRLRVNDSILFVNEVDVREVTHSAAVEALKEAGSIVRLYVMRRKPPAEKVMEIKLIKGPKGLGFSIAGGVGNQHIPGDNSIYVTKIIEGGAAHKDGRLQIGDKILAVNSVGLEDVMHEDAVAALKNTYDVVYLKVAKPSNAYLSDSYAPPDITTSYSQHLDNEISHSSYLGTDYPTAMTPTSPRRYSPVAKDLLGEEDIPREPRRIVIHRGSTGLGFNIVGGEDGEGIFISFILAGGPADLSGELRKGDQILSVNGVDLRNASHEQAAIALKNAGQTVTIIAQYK

This data set concerns the target Neuroligin-1 C-terminal 16mer peptide (Rattus norvegicus) (UniProt Q62765). Briefly: surface plasmon resonance. For orientation: SPR reads the build-up and loss of mass on a sensor chip optically.

Turning to PSD-95 PDZ1-3 (from UniProt P31016), the Kd – broadly, the free concentration of one partner at which half of the binding sites on the other are occupied at equilibrium, for simple one-to-one binding – was 200 nM.
